Patent publication US7029865B2, “DNA molecules encoding the melanocortin 4 receptor protein from rhesus monkey” (Merck & Co., Inc., priority 1998, dated 2006)

Amino acid sequences for entries named in this document (tags omitted). A change or cut given only in a name is not applied to a line headed by its entry.
UniProt P33032: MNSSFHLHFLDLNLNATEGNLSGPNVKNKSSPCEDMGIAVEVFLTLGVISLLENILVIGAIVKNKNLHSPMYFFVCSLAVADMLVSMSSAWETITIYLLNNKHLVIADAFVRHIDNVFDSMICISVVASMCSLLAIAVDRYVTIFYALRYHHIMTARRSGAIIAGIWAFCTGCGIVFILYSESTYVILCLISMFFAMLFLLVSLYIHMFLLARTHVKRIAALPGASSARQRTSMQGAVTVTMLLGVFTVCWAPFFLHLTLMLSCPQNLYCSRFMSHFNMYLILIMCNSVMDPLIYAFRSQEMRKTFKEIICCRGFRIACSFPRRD

Biological target: T1, hMC-5R (Homo sapiens, UniProt P33032)
T1 construct: host or cells: cells expressing the human receptor
Assay: Competitive binding assay, [125I]-NDP alpha MSH, membranes from cells expressing hMC-5R
Settings: read-out: IC50 hMC-5R

Substance | IC50 [nM]
MTII | 0.9
NDP-alpha-MSH | 0.4
